The values that follow come from US6403805B1 (Janssen Pharmaceutica N.V., priority 1995, dated 2002).

Chains of the proteins cited; added tags and fusions are not shown.
UniProt Q07343, whole entry: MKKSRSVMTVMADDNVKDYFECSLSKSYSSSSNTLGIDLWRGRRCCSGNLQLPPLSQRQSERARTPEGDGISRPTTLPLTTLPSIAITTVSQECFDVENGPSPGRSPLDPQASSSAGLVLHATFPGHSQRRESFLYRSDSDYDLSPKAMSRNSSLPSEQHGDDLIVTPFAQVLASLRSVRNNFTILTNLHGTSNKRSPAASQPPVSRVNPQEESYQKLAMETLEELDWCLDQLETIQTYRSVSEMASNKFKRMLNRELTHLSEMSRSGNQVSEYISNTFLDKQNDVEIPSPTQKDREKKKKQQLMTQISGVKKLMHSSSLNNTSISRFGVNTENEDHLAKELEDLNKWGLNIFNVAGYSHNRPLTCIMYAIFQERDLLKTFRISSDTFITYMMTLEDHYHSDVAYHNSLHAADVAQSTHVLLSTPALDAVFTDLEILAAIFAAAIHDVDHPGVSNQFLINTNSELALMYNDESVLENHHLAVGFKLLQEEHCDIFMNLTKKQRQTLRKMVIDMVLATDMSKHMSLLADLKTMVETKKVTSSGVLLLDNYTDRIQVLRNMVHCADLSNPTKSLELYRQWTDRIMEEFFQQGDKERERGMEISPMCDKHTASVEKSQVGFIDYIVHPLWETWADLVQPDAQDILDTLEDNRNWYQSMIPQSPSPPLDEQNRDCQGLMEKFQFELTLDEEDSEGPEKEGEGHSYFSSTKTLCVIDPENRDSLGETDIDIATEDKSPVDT

In test [1] the target is recombinant human MNL phosphodiesterase type IV B (Homo sapiens, UniProt Q07343). As to the kind of experiment: Inhibition of recombinant human mononuclear lymphocyte (MNL) phosphodiesterase type IV B produced in insect cells with a baculovirus vector. The settings on record: read-out: IC50 (in M); recombinant human MNL PDE IV B; 0.8 μM 3H-cAMP, pH 8, 37° C.; calculated graphically. The protocol: Inhibition of recombinant human mononuclear lymphoctye (MNL) phosphodiesterase type IV B produced in insect cells with a baculovirus vector
The alleviating and/or curing effect of the instant compounds on allergic and atopic diseases was assessed by an in vitro assay system to detect an inhibiting effect on the recombinant human MNL phosphodiesterase type IV B.
Seventy-two hours after infection with recombinant baculovirus, the insect cells were harvested and pelleted at 500 g for 5 minutes. The cells were lysed in 10 ml lysis-buffer consisting of 20 mM Tris, 10 mM EGTA, 2 mM Na2EDTA, 1% Triton-X-100, 1 mM Na3VO4, 10 mM NaF, 2 μg/ml of leupeptine, pepstatine and aprotinine, 0.3 μg/ml benzamidine and 100 μg/ml TPCK pH 7.5. After 5 minutes on ice, solubilized cells were centrifuged at 4000 rpm for 15 minutes at 4° C. The resulting supernatant was filtered through a 0.45 μm filter (Millipore) and brought to TBS buffer (50 mM Tris, 150 mM NaCl pH 7.4).
The supernatant containing phosphodiesterase (PDE) type IV B, was subsequently loaded onto a 5 ml anti-FLAG-M2 affinity gel column, previously activated with 5 ml 100 mM glycine pH 3.5 and equilibrated with 20 ml 50 mM Tris, 150 mM NaCl pH 7.4. After washing the column with equilibration buffer, PDE IV was eluted in 1.5 ml fractions containing 37.5 μl 1M Tris pH 8. The fractions were dialyzed overnight against 20 mM Tris, 2 mM Na2EDTA and 400 mM NaCl pH 7.5 and tested for PDE IV activity. Identification was done on SDS PAGE and Western Blot (anti-FLAG-M2). Active fractions were pooled, brought to 10% glycerol and stored at −70° C.
The incubation mixture (pH 8) (200 μl) contained 20 mM Tris, 10 mM magnesium sulphate, 0.8 μM ^3H-cAMP (310 mCi/mmole) and the phosphodiesterase type IV, the amount depending on the enzymatic activity.
When the effect of different compounds on phosphodiesterase activity was tested, the medium without cAMP was incubated with the compound(s) or its carrier (DMSO-1% final concentration) for 5 min. The enzymatic reaction was started by addition of ^3H-cAMP and stopped 10 min later after transferring the microtiter-plate in a waterbath at 100° C. for 5 min. After cooling to room temperature, alkaline phosphatase (0.25 μg/ml) was added and the mixture was incubated at 37° C. for 20 min. 100 μl of the mixture was subsequently applied to a GF-B filter-microtiter-plate (Millipore) filled with 300 μl DEAE-Sephadex-A25 suspension. The plate was washed 3 times with 75 μl 20 mM Tris pH 7.5 and the filtrates were collected for counting in the Packard Top Count scintillation counter.
The inhibiting effect of the present compounds on recombinant human MNL phosphodiesterase PDE IV B was measured at different concentrations of the instant compounds. The IC50 values (expressed in M) were calculated graphically from the thus obtained inhibition values.

Test [2] has as its system dextran-induced oedema formation in mouse ear. As to the kind of experiment: Dextran-induced oedema formation in mouse ear. The test is classed as in vivo, Male Swiss mice. The settings on record: oral dose of 5 mg/kg in PEG-200, one hour before i.v. dextran T500/pontamine sky-blue; vs background blueing value. The protocol: Dextran-induced oedema formation in mouse ear Systemic injection of dextran T500 in normal, non-sensitized mice elicits increased vascular permeability, leading to extravasation and oedema of the extremities. When dextran is injected together with a blue dye, blueing of the ears is the most prominent feature of oedematous response. Male Swiss mice weighting 24-26 g were orally pretreated with the test compound dissolved in PEG-200 at different concentrations or solvent. One hour later, the mice were given an intravenous injection with an isotonic saline solution containing 12 mg/ml dextran T500 and 2.6 mg/ml pontamine sky-blue dye, in a volume of 0.1 ml per 10 g body weight. One hour and forty-five minutes later, the animals are sacrificed by ether and their ears removed. Extraction and quantification of the extravasated dye is done as described by Van Wauwe and Goossens (Drug Dev. Res. 1986, 8, 213-218). The extravasation of the dye is characterized by the blueing value which is defined as the concentration of the extracted dye in both ears. The background blueing value was determined once as the mean blueing value obtained by injecting a group of mice with a saline solution containing only dextran T500 and the blue dye. Table 6 lists the percentage inhibition of the extravasation of the dye when compared with the background extravasation of the dye when the test compound was administered at a dose of 5 mg/kg. The test compounds indicated by an asterisk (*) were tested at a dose of 2.5 mg/kg

Take `COc1ccc(C(F)Cn2cc[nH]c2=O)cc1OC1CCCC1` (stereo not shown): the IC50 in test [1] was 17 nM. The “% inhibition of the extravasation of the dye” value (shortened to “% inhibition”) in test [2] came to 100%.
The like results for `COc1ccc(C(C)C(C)n2cc[nH]c2=O)cc1OC1CCCC1` (stereo not shown) were, in that order, 260 nM and 41.3%.
For the molecule `COc1ccc(C(C)CCn2cc[nH]c2=O)cc1OC1CCCC1` (stereo not shown), the IC50 in test [1] was 550 nM. In test [2], the “% inhibition” value turned out to be 10.9%.
Turning to `COc1ccc(C(C)(C)Cn2cc[nH]c2=O)cc1OC1CCCC1`, in test [1], the IC50 is 52 nM. In addition, the “% inhibition” value in test [2] turned out to be 34.0%.
With `COc1ccc(C(O)Cn2cc[nH]c2=O)cc1OC1CCCC1` (stereo not shown), in test [1], the IC50 is 40 nM. For the same molecule, the “% inhibition” value in test [2] stood at 69.3%.
With `COc1ccc(C(C)(F)Cn2cc[nH]c2=O)cc1OC1CCCC1` (stereo not shown), the IC50 in test [1] was 59 nM. In test [2], the “% inhibition” value is recorded as 90.4%.
In the case of `COc1ccc(C(C)n2cc[nH]c2=O)cc1OC1CCCC1` (stereo not shown), the IC50 in test [1] is 150 nM. Also, the “% inhibition” value in test [2] came out at 35.1%.
`COc1ccc(CCn2cc[nH]c2=O)cc1OC1CCCC1`: the IC50 in test [1] was 6.8 nM. In test [2], the “% inhibition” value is given as 63.7%.

By IC50 is commonly meant the midpoint of a concentration-inhibition curve.
